Consider one molecule from US10654868B2, “Dihydropyrazole azepine compound serving as Akt inhibitor” (HARBIN ZHENBAO PHARMACEUTICAL CO., LTD., priority 2016, dated 2020).

The chains behind the UniProt entries cited, without tags or fusion partners.
UniProt P31751, whole entry: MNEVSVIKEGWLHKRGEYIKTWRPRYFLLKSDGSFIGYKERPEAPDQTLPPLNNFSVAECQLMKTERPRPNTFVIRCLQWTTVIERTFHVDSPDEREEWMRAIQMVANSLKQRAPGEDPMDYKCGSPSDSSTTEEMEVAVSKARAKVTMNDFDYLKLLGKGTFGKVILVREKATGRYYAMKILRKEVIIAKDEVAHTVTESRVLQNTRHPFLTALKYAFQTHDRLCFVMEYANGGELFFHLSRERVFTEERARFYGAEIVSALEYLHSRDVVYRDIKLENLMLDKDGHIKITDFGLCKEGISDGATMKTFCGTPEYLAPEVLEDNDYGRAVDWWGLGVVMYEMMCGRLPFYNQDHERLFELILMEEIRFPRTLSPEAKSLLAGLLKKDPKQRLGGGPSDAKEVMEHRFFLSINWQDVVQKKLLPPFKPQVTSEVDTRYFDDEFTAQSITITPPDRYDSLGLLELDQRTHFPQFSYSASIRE
UniProt P31749, whole entry: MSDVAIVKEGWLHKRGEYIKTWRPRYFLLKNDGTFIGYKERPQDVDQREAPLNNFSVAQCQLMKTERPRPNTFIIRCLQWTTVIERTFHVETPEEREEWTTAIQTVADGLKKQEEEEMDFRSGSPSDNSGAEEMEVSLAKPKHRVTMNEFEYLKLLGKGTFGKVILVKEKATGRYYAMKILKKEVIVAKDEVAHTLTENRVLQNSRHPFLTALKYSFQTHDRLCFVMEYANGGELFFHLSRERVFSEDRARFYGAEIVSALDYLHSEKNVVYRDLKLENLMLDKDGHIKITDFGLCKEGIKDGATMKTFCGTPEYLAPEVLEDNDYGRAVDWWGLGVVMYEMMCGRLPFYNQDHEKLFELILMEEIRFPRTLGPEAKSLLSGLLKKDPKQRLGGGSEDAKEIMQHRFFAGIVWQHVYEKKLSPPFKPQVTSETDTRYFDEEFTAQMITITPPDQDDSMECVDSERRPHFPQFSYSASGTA
UniProt Q9Y243, whole entry: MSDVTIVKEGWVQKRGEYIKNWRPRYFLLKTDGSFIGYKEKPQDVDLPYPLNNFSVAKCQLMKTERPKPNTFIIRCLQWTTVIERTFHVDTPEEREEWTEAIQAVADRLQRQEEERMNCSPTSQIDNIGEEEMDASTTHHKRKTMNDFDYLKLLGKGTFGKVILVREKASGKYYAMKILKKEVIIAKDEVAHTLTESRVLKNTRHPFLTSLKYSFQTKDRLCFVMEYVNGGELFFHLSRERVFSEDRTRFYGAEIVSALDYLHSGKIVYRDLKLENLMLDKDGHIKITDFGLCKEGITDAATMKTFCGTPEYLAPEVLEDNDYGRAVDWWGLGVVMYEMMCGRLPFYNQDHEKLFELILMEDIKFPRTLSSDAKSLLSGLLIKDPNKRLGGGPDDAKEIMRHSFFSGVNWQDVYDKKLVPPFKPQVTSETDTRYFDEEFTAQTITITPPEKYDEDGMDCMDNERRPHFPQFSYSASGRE

For assay [1], the target named is Akt2 (Homo sapiens, UniProt P31751). As to the kind of experiment: Akt2 kinase inhibition, LANCE TR-FRET. To be noted: read-out: Akt2 IC50; Akt2 2 nM, ATP 360 uM, 90 min at room temperature. For orientation: Time-resolved FRET reads energy transfer from a long-lived donor to a nearby acceptor.
In assay [2] the test system is LNCaP cells. As to the kind of experiment: LNCaP cell activity, CellTiter-Glo live cell detection. To be noted: read-out: LNcap cell IC50; 1000 cells per well, incubated 3 days, starting concentration 10 uM. (In general: ATP-based viability assays read luminescence as a measure of living cells.)
For assay [3], the target named is Akt1 (Homo sapiens, UniProt P31749). As to the kind of experiment: Akt1 kinase inhibition, LANCE TR-FRET. As to conditions: read-out: Akt1 IC50, ATP 36 uM, 90 min at room temperature.
Assay [4] addresses Akt3 (Homo sapiens, UniProt Q9Y243). As to the kind of experiment: Akt3 kinase inhibition, LANCE TR-FRET. As to conditions: read-out: Akt3 IC50; Akt3 2 nM, ATP 160 uM, 90 min at room temperature.

Molecules are shown by their SMILES.

In the case of `N#Cc1cnn2c1-c1cc(C(=O)N[C@H](CN)Cc3cc(F)cc(F)c3)sc1OCC2`, the IC50 – broadly, the concentration needed to halve the response being measured – in assay [1] was 856 nM; in assay [2] it was 792 nM; in assay [3], 36 nM; in assay [4], 627 nM.
